Measured values reported in PubChem BioAssay AID1220 (Sanford-Burnham Center for Chemical Genomics, 2008).
Only a part is listed here, and it is no random draw. Some tests of the compounds listed are not included; inactive here does not mean inactive elsewhere. The source made the active and inactive calls. Cut-off read from the data, not from the text of the source: active = inhibition above about 50%; inactive = the rest.

By UniProt entry, the sequences of proteins in these tests, tags left out.
UniProt P34949, whole entry: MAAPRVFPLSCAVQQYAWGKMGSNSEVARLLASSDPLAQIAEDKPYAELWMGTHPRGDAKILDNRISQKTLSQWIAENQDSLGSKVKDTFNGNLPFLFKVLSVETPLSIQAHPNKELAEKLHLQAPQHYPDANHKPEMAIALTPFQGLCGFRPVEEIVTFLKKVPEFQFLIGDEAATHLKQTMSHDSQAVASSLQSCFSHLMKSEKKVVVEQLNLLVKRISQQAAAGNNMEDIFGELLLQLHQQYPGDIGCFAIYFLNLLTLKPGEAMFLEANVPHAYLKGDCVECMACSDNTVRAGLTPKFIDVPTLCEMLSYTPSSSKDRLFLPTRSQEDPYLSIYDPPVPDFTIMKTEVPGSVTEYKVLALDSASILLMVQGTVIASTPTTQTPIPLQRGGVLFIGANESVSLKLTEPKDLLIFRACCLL

target: Mannose-6-phosphate isomerase (Homo sapiens) (UniProt P34949); experiment: MPI inhibition at elevated mannose 6-phosphate – biochemical, fluorescence intensity, high mannose 6-phosphate, primary screen (AID 1220); conditions: recombinant PMI enzyme, coupled fluorescence intensity; at 20 µM; stronger effect = higher value

Structure (SMILES) | inhibition
CN(C)c1cccc(C(=O)NCC2(N(C)C)CCCCC2)c1 | inactive: 10.3%
O=C(OC1CN2CCC1CC2)C(CO)(c1ccccc1)c1ccccc1 (centres undefined) | inactive: 0.7%
COc1cccc(C(=O)NCC2(N3CCCCC3)CCCCC2)c1 | inactive: 7.9%
CCN1CCCC(OC(=O)C2(O)c3ccccc3C=Cc3ccccc32)C1 (centres undefined) | inactive: -4.4%
C=CCN1CCN(CCOC(=O)C(O)(c2ccccc2)c2ccccc2)CC1 | inactive: -13.9%
Cc1ccccc1C(=O)NCC1(N2CCCCC2)CCCCC1 | inactive: 2%
CN(C)C1CCCC1OC(=O)C(O)(c1ccccc1)c1ccccc1 (centres undefined) | inactive: -11.3%
CC(C)N1C(=O)CC2(CCN(CCOC(=O)C(O)(c3ccccc3)c3ccccc3)CC2)C1=O | inactive: -7.5%
O=C(NCC1(N2CCCCC2)CCCCC1)c1cc([N+](=O)[O-])ccc1Cl | inactive: -12.7%
